Assay results: BindingDB's records for US9475819

Protein sequences, listed by entry. Tags and fused reporters are not part of them.
UniProt P56718, whole entry, looked up: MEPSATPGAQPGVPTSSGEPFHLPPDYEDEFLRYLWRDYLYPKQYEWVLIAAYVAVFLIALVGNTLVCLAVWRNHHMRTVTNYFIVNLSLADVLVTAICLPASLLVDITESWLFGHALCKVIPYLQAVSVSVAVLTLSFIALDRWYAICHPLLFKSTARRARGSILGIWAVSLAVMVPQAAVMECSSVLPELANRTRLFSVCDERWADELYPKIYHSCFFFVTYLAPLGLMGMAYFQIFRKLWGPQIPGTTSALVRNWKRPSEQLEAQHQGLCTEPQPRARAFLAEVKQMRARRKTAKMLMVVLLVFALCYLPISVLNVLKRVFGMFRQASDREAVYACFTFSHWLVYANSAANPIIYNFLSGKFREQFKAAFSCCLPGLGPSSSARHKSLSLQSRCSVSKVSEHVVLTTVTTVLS

Molecular target: Orexin/Hypocretin receptor type 1 (Rattus norvegicus, UniProt P56718)
Assay: Radioligand Binding Assay

## Cc1ccc(-n2nccn2)c(C(=O)N2C3CCC2C(Nc2ccc(Br)cn2)C3)n1 (stereo unspecified)
  Ki: 38 nM
